Values quoted from earlier work as cited in US7447594B2, “Molecular cardiotoxicology modeling” (Ocimum Biosolutions, Inc., priority 2001, dated 2008).

How the values were obtained:
[1] = rat, in vivo; cited from earlier work
[2] = single intraperitoneal doses of 1-32 mg/kg; cited from earlier work

CC(N)C(O)c1ccccc1 (stereo not drawn) [phenylpropanolamine]
myocardial contractility and coronary blood flow [1]: myocardial contractile depression without altering global coronary artery blood flow | blood pressure [2]: dose-dependent increased blood pressure | heart pathology following termination [2]: myocardial necrosis
